64 molecules from PubChem BioAssay AID651699 (Sanford-Burnham Center for Chemical Genomics, 2012) can be followed below.

By UniProt entry, the sequences of proteins in these tests, tags left out. Where a name states a change or a piece, a line headed by the entry shows the natural chain unless it says otherwise.
UniProt P61081: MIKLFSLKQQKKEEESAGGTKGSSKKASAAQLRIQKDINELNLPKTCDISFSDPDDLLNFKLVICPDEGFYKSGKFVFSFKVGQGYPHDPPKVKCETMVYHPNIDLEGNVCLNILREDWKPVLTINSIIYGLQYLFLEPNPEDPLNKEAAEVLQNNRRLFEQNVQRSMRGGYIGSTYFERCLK
UniProt Q13564: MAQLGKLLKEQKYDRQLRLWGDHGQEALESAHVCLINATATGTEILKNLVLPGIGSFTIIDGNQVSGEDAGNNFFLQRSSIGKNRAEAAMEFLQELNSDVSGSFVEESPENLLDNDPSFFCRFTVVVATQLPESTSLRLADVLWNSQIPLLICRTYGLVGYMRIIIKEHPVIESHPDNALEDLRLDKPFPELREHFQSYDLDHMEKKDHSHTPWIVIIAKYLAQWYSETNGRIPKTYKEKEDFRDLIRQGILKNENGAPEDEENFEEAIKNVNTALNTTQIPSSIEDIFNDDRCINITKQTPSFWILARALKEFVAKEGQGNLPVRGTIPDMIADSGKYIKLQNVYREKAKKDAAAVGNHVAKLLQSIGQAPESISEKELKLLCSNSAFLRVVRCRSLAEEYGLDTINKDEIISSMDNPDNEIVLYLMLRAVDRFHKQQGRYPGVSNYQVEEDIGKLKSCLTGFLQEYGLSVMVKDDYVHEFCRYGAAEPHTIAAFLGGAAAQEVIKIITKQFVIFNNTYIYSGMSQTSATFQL

Structures are written as SMILES. The list shows a part of the results, in another mix than the full data. Activity calls are given as the source filed them. Cut-off read from the data, not from the text of the source: active = inhibition above about 36%; inactive = the rest.

This assay has as its target NEDD8-conjugating enzyme Ubc12 (Homo sapiens) + NEDD8-activating enzyme E1 regulatory subunit (Homo sapiens) (UniProt P61081+Q13564). In words: inhibitors of cullin neddylation, primary screen, biochemical, TR-FRET, uHTS, NAE and Ubc12 (AID 651699). To be noted: at 25 µM, stronger effect = higher value.
As for `CS(=O)(=O)c1ccc(Cl)c(NC(=O)COC(=O)C(O)(c2ccccc2)c2ccccc2)c1`, the inhibition is inactive: -1.76%.
Take `O=[As](O)(O)c1cccnc1`: the inhibition was inactive: 0.6%.
Turning to `COc1cc(C(=O)NCC2(N3CCOCC3)CCCCC2)cc(Cl)c1OC(C)C`, the inhibition was inactive: 6.37%.
For `O=C(OC1CN2CCC1CC2)c1ccc(Cl)cc1` (centres undefined), the inhibition is inactive: -9.66%.
With `Cc1cccc(OCC(=O)OC2CN3CCC2CC3)c1` (centres undefined) the figure was inactive: -1.33%.
Next, `O=[As](O)(c1cccc(O)c1)c1cccc(O)c1`: inactive: 0.07%; `CCCOP(=S)(Nc1nc(N)cc(=O)[nH]1)OCCC`: inactive: 6.22%.
As to `Nc1cccc2c([As](=O)(O)O)cccc12`, the inhibition is inactive: -1.08%.
Consider `Cc1ccc(NCCc2c([N+](=O)[O-])cc([N+](=O)[O-])cc2[N+](=O)[O-])cc1`, for which the inhibition was inactive: -49.7%.
As to `CCOP(=O)(Nc1cccc2ccccc12)OCC`, the inhibition was inactive: 23.4%.
`COc1cc(C2NCCC3(OCCO3)C2(C)C)cc(OC)c1OC` (centres undefined): the inhibition is inactive: 2.8%.
For `CS(=O)(=O)c1cc([N+](=O)[O-])c2no[n+]([O-])c2c1`, the inhibition was inactive: 0.07%.
As to `O=P(Nc1nccs1)(Oc1ccccc1)Oc1ccccc1`, the inhibition was inactive: 6.54%.
Consider `O=P(Nc1nccs1)(c1ccccc1)c1nc2ccccc2s1` (centres undefined), for which the inhibition is inactive: -7.32%.
On to `CCOP1(=S)c2c(C)nn(CCC#N)c2N=C(c2ccccc2F)N1C` (centres undefined), for which the inhibition was inactive: 6.75%.
Next, `O=C(O)COc1ccc([As](=O)(O)O)cc1[N+](=O)[O-]`: inactive: 6.3%; `Nc1ccccc1[As](=O)(O)c1ccccc1`: inactive: 7.39%.
`NC(=O)Nc1ccc([As](=O)(O)O)cc1`: the inhibition was inactive: 6.03%.
For the molecule `CN(C(=O)Cc1ccc(Cl)c(Cl)c1)[C@H]1CC[C@@]2(CCCO2)C[C@@H]1N1CCCC1`, the inhibition is inactive: -11.4%.
For `O=[N+]([O-])c1ccc2c(c1)nnn2O`, the inhibition is inactive: -21.5%.
Regarding `CN(C)C(=O)c1cc([N+](=O)[O-])cc2c1-c1c(cc([N+](=O)[O-])cc1[N+](=O)[O-])C2=O`, the inhibition is inactive: -59%.
Regarding `CCOP1(=S)c2c(C)nn(CCC#N)c2N=C(c2ccc(F)cc2)N1C` (centres undefined), the inhibition was inactive: -4.61%.
Regarding `CN(C(=O)Cc1ccccc1)[C@@H]1CC[C@]2(CCCO2)C[C@H]1N1CCCC1`, the inhibition was inactive: 1.75%.
Take `N#CCCN(C(=O)COC(=O)C(O)(c1ccccc1)c1ccccc1)c1ccc(F)cc1`: the inhibition was inactive: 0.02%.
On to `Cc1ccc(C(=O)OC2CN3CCC2CC3)cc1` (centres undefined), for which the inhibition was inactive: -11.5%.
With `CC1CCC(C(C)C)C(OP(=O)(Nc2ccccn2)c2ccccc2)C1` (centres undefined) the figure was inactive: 1.46%; with `Cc1nn(-c2ccccc2)c2c1P(=O)(N1CCOCC1)N(C)C(c1ccccc1)=N2` (centres undefined), inactive: 2.68%.
Regarding `CCCC1OP(=O)(Nc2ccccc2)OCC1CC` (centres undefined), the inhibition is inactive: 1.08%.
With `O=C(/C=C/c1ccccc1)OC1CN2CCC1CC2` (centres undefined) the figure was inactive: 6.58%.
As for `CN(C)C1(CNC(=O)c2ccc(S(C)(=O)=O)cc2)CCCCC1`, the inhibition was inactive: 10.3%.
Next, `O=P1(Nc2ncccn2)COc2ccccc2OC1`: inactive: 5.99%.
For `Cc1ccc(S(=O)(=O)N(CCCN)CCCc2c(C)nc(N)[nH]c2=O)cc1`, the inhibition was inactive: -62%.
Turning to `O=[As](O)(c1cccs1)c1cccs1`, the inhibition was inactive: 1.36%.
On to `Cc1ccc(OCC(=O)OC2CN3CCC2CC3)cc1` (centres undefined), for which the inhibition was inactive: -1.34%.
Take `NS(=O)(=O)c1cccc(NC(=O)COC(=O)C(O)(c2ccccc2)c2ccccc2)c1`: the inhibition is inactive: -26.3%.
On to `O=P1(Nc2ccc(Br)cn2)COc2ccccc2OC1`, for which the inhibition was inactive: -2.65%.
Take `Nc1cccc([As](=O)(O)c2ccccc2)c1`: the inhibition was inactive: 7.47%.
For the molecule `CCOP(=O)(Nc1ccc(C)cn1)OCC`, the inhibition was inactive: 20.2%.
With `CN(CCCl)Cc1cc(Cl)c(NC2=NCCN2)c(Cl)c1`, the inhibition is inactive: -16.2%.
With `CCOP(=O)(NC(=NC(C)c1ccccc1)NC(C)c1ccccc1)OCC` (centres undefined) the figure was inactive: -0.06%.
As for `CCC1=CC2Cc3nc4ccc(Cl)cc4c(N)c3C(C1)C2` (centres undefined), the inhibition was inactive: 1.2%.
Consider `O=P1(Nc2ccccn2)COc2ccccc2OC1`, for which the inhibition was inactive: 6.86%.
With `CC(C)(C)C(=O)NC(Sc1ncccn1)C(Cl)(Cl)Cl` (centres undefined) the figure was inactive: 11%; with `Clc1n[nH]nc1-c1nn[nH][15n]1`, inactive: -2.91%; with `O=P1(N(CCCl)CCCl)NCCC(C(F)(F)F)O1` (centres undefined), inactive: -4.83%.
As to `COc1ccccc1CNC(=O)COC(=O)C(O)(c1ccccc1)c1ccccc1`, the inhibition was inactive: 16.1%.
Consider `CC1(CBr)Cn2c(nc3ccccc3c2=O)S1` (centres undefined), for which the inhibition was inactive: -5.39%.
On to `CN(C(=O)Cc1ccc(Cl)c(Cl)c1)[C@@H]1CCCC[C@H]1N1CCCC1`, for which the inhibition was inactive: -4.36%.
Take `CC(C)/C=N\N=C(\N)N[N+](=O)[O-]`: the inhibition was inactive: -3.4%.
Take `COC(=O)C1(C)COP(=O)(N2CCCC2)OC1` (centres undefined): the inhibition is inactive: -0.09%.
As for `COP1(=S)c2c(C)nn(CCC#N)c2N=C(c2ccc(F)cc2)N1C` (centres undefined), the inhibition is inactive: 1.53%.
Turning to `O=C(Nc1ccncc1[N+](=O)[O-])c1ccc([N+](=O)[O-])cc1[N+](=O)[O-]`, the inhibition was inactive: -42.2%.
Turning to `O=C(COc1ccccc1)OC1CN2CCC1CC2` (centres undefined), the inhibition was inactive: -4.28%.
As to `O=C(O)C(=O)c1ccc(N(CCCl)CCCl)cc1`, the inhibition was inactive: -4.07%.
With `CCOC(=O)c1ccc(NC(=O)C(C)(CCl)SC)cc1` (centres undefined) the figure was inactive: -2.23%; with `CSc1ccc(Nc2c([N+](=O)[O-])cc([N+](=O)[O-])cc2[N+](=O)[O-])cc1`, inactive: -40.7%; with `O=C(OC1CN2CCC1CC2)c1cccc([N+](=O)[O-])c1` (centres undefined), inactive: -20.9%.
As to `CCC(C)N(CC(C)C)C(=S)SC(NC(C)=O)C(Cl)(Cl)Cl` (centres undefined), the inhibition is inactive: -0.42%.
Turning to `CC1CCNP(=O)(N(CCCl)CCCl)O1` (centres undefined), the inhibition was inactive: -4.53%.
With `O=C(O)C(O)c1ccc(N(CCCl)CCCl)cc1` (centres undefined) the figure was inactive: -7.53%; with `CCOC(=O)Nc1ccc([As](=O)(O)O)c(O)c1`, inactive: -3.26%.
With `Cc1cc(SC(NC(=O)c2ccccc2)C(Cl)(Cl)Cl)nc(C(C)C)n1` (centres undefined), the inhibition is inactive: 18.8%.
For `CCCCOc1ccc(C(=O)NCC2(N3CCCCC3)CCCCC2)cc1OC`, the inhibition is inactive: -1.46%.
Regarding `COP(=O)(OC)N1CC1c1ccccc1` (centres undefined), the inhibition was inactive: -4.54%.
